In US12599676B2, “Cytotoxic imidazo[1,2-A]pyridine compounds and their use in therapy” (MyricX Pharma Limited, priority 2022, dated 2026):

Tests used:
[1] = test system: NCI-N87 tumour cells; experiment: Subcutaneous NCI-N87 human gastric xenograft model; assay type: in vivo, BALB/c nude mice; settings: for tumour volumes compared to vehicle alone (Group 1): all concentrations (2.5 mg/kg or 5 mg/kg), Isotype control ADC 5 mg/kg
Experimental: In this study, 143 mice were inoculated subcutaneously in the right flank region with 1×10^7 viable NCI-N87 tumour cells resuspended in 0.1 mL of PBS mixed with Matrigel (1:1) for tumour development. 102 mice were assigned to 9 treatment groups on study day 0 when tumour volumes averaged 168.08 mm^3. […] The study was terminated on study Day 28.
Tumour volumes in mice were measured three times per week and tumour volume was calculated using the formula 0.5 (L×W2).
Tumour Growth Inhibition, ΔTGI %=((mean(C)−mean (CO))−(mean(T)−mean(TO)))/(mean(C)−mean(CO))*100% where T is the mean tumour volume of the treated group on the measurement day and TO is the mean tumour volume on Study Day 0. C is the mean tumour volume of the control Group 1 mice on the measurement day and CO is the mean tumour volume on Study Day 0.

[2] = test system: BT474 breast cancer cells; experiment: Orthotopic BT474 breast cancer xenograft model; assay type: in vivo, NOD/SCID mice
Experimental: NOD/SCID mice were implanted with estrogen pellets (17β-estradiol, 60 day release, 0.36 mg) subcutaneously in the right flank one day before the tumour inoculation. On day −8 each mouse was then injected in the right mammary fat pad with 1×10^7 viable BT474 breast cancer cells resuspended in 0.2 mL of Phosphate Buffered Saline mixed with matrigel (1:1). Mice were assigned to treatment groups when tumour volumes averaged 149.78 mm^3 on study day 0. […] The study was terminated on Study Day 35.
Each group was comprised of 10 mice. Tumour volumes in mice were measured three times per week and tumour volume was calculated using the formula 0.5 (L×W^2). The mean tumour volumes (+SEM) for each study group at each measurement are shown in FIGS. 7 and 8 plotted as Last Observation Carried Forward. Statistical analyses were carried out on tumour readings for Groups 1, 2, 3, 4 and 5 up to Study Day 23 (after this point >50% of the animals within one of the study groups were lost; Group 2) using two-way ANOVA, or a Mixed-Effects model was fitted when values were missing from groups (PRISM GraphPad Software Inc.). Statistical analysis of Group 6 was conducted until day 12 (at this point the study was terminated due to the significant loss of observed body weight). […]

[3] = Body weight in BT474 xenograft study; assay type: in vivo, NOD/SCID mice; settings: trastuzumab or ADC Example 1 2.5 or 5 mg/kg; Example 12 2 mg/kg (Group 6)
Experimental: During the study, body weights were measured three times weekly for all animals. Animals were given Diet Gel for the entire duration on the study.

[4] = Body weight in NCI-N87 xenograft study; assay type: in vivo, BALB/c nude mice
Experimental: During the study, body weights were measured three times weekly for all animals. Animals were given Diet Gel for the entire duration on the study. The mean body weights for each group during the dosing phase are presented in FIGS. 13A (2.5 mg/kg) and 13B (5 mg/kg).

Substance | TGI study day 28 ([1]; 2.5 mg/Kg IV QW × 2 weeks) | TGI study day 28 ([1]; 5 mg/Kg IV QW × 2 weeks) | tumour volumes compared to vehicle alone (Group 1) [1] | tumour volume compared to trastuzumab 2.5 mg/kg (Group 2) ([1]; test article 2.5 mg/kg) | tumour volume compared to ADC Example 1 2.5 mg/kg (Group 4) ([1]; test article 5 mg/kg) | tumour volume compared to trastuzumab 2.5 mg/kg (Group 2) ([1]; test article 5 mg/kg) | tumour volume compared to trastuzumab deruxtecan 2.5 mg/kg (Group 6) ([1]; test article 5 mg/kg) | Tumor growth inhibition % on day 23 ([2]; 2.5 mg/kg IV once per week for four weeks) | Tumor growth inhibition % on day 23 ([2]; 5 mg/kg IV once per week for four weeks) | body weights compared to vehicle control [3] | Significant body weight loss (>10%) ([4]; 2.5 mg/Kg (Group 2)) | Significant body weight loss (>10%) ([4]; 5 mg/Kg (Group 3))
trastuzumab deruxtecan | 71.66% | 140.71% | significant decrease | significantly higher tumour volumes | no significant difference | no significant difference | significant decrease | – | – | – | – | –
trastuzumab: antibody that binds HER2; heavy chain SEQ ID NO: 2, light chain SEQ ID NO: 1 | 123.08% | 167.70% | significant decrease | – | – | significant decrease | – | 3.6% | 46% | did not differ significantly from the vehicle control | one animal | one animal
